This test addresses T1, mouse alpha 2B receptor (m α2B) (Mus musculus, UniProt P30545).
T1 construct: expressed in transfected cells
Kind of test: FLIPR calcium flux assay in HEK 293 m α2B/Gqi5 cells (Fluo-4 dye). The settings on record: FIG. 2, second experiment; 35° C.; 96 well. The format is cell-based. From the text:
This example describes the methodology used in assaying compounds for the ability to modulate the α2B receptor in a high throughput assay format in which the “readout” is the measurement of a change in intracellular calcium flux due to the use of the “promiscuous” Gqi5 hybrid G-protein, linking the α2B receptor (normally coupled to the adenylyl cyclase pathway) to the PLC pathway. Changes in intracellular calcium flux are monitored using a dye that becomes fluorescent when it binds free Ca^++ ion.
HEK 293 cells are stably co-transfected with two plasmids, the first encoding the mouse alpha 2B receptor (m α2B), and the second encoding the hybrid Gqi5 protein. […] The nucleotide sequence encoding the human Gqi5 protein is contained in the reference Aiyar et al., Human AT1 receptor is a single copy gene: characterization in a stable cell line. Mol. Cell. […] These references are hereby all incorporated by reference herein. […]
Each well of cells (in a 96 well microtiter dish) is assayed for activity in the FLIPR assay using the Fluo-4® calcium indicator dye to detect calcium flux. The structure of this dye, which can be purchased from Molecular Probes, Inc., is as follows:
The cells are loaded with this dye using the manufacturer's recommendations, and washed 3× with FLIPR Buffer. Assays are conducted at room temperature (unless otherwise indicated in the following examples). […]

Sequences of proteins named here, by UniProt entry; tags and fusion partners are left off.
UniProt P30545, whole entry: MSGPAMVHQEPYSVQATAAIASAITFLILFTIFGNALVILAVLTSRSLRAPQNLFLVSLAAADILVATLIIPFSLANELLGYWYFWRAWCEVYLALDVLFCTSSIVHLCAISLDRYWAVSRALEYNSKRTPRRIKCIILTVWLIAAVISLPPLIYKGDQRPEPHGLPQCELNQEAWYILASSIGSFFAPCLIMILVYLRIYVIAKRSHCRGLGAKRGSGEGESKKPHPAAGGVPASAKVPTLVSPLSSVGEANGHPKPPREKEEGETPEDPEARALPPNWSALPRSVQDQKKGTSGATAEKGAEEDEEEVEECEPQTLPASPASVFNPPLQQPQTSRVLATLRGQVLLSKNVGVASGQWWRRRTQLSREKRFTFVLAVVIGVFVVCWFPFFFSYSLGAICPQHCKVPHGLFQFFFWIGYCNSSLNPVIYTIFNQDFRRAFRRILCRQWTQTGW

Turning to norepinephrine, the EC50 (usually the concentration at which the effect is half-maximal) is 2 nM.

Source of the values: US7655396B1, “Methods for detecting receptor modulator activity” (Allergan, Inc., priority 2006, dated 2010).
